Results: ChEMBL document CHEMBL2046316, “NOpiates: Novel Dual Action Neuronal Nitric Oxide Synthase Inhibitors with μ-Opioid Agonist Activity” (2012)
pEC50, pKi: −log10 of the molar value.

By UniProt entry, the sequences of proteins in these tests, tags left out.
UniProt P35372, whole entry, looked up: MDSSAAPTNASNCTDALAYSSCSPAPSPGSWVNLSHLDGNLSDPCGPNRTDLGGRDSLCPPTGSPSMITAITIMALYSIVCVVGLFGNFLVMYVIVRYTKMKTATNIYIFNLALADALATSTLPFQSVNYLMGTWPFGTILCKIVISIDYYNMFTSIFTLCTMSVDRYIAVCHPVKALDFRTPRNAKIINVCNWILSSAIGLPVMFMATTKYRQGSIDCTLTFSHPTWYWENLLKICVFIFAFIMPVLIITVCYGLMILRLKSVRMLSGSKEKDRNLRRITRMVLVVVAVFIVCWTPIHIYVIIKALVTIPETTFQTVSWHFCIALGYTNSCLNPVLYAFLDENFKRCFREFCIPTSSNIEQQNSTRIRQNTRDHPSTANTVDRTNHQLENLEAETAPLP

Assays:
[1] = target: T1, Mu-type opioid receptor (Homo sapiens, UniProt P35372); assay: Displacement of [3H]DAMGO from human mu opioid receptor expressed in HEK-293 cells by scintillation counting; settings: hek293
[2] = target: T1, Mu-type opioid receptor; settings: cho

CC[C@@H](c1cccc(O)c1)[C@@H](C)CN(C)C
pKi [1]: 6.80 | pEC50 [2]: 6.17
